# From US4820834A, “Benzodiazepine analogs” (priority 1987, dated 1989)
# Protein sequences, listed by entry. Tags and fused reporters are not part of them.
# UniProt P30551, whole entry: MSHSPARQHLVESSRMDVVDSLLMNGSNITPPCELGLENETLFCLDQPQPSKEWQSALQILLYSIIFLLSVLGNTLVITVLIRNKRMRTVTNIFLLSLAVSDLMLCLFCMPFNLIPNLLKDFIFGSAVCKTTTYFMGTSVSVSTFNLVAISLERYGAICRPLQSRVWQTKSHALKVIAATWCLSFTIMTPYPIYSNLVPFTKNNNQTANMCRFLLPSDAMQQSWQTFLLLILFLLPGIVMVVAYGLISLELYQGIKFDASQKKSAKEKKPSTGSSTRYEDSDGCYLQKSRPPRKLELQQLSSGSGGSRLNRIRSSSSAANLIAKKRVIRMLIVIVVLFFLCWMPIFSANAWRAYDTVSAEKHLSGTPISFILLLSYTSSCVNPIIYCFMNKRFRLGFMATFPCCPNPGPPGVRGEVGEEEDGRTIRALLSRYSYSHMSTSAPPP
# Biological target: T1, CCK receptor (pancreas) (Rattus norvegicus, UniProt P30551)
# T1 construct: The whole pancreas was dissected free of fat tissue and was homogenized; from tissue; host or cells: rat pancreas membranes (Sprague-Dawley)
# Experiment: CCK Receptor Binding (Pancreas): inhibition of ^125 I-CCK-33 binding
# Design: species or system Male Sprague-Dawley rats
# Details: rat pancreas membranes, ^125 I-CCK-33, 37° C., 30 minutes
# Experimental: 1. CCK Receptor Binding (Pancreas)
# CCK-33 was radiolabeled with ^125 I-Bolton Hunter reagent (2000 Ci/mmole) as described by Sankara et al. (J. Biol. Chem. 254: 9349-9351, 1979). Receptor binding was performed according to Innis and Snyder (Proc. Natl. Acad. Sci. 77: 6917-6921, 1980) with the minor modification of adding the additional protease inhibitors, phenylmethane sulfonyl fluoride and o-phenanthroline.
# Male Sprague-Dawley rats (200-350 g) were sacrificed by decapitation. The whole pancreas was dissected free of fat tissue and was homogenized in 20 volumes of ice-cold 50 mM, Tris HCl (pH 7.7 at 25° C.) with a Brinkmann Polytron PT 10. The homogenates were centrifuged at 48,000 g for 10 min. Pellets were resuspended in Tris Buffer, centrifuged as above and resuspended in 200 volumes of binding assay buffer (50 mM Tris HCl, pH 7.7 at 25° C., 5 mM dithiothrietol, 0.1 mM bacitracin, 1.2 mM phenylmethane sulfonyl fluoride and 0.5 mM o-phenanthroline). […] All assays were run in duplicate or triplicate. The reaction mixtures were incubated at 37° C. for 30 minutes and centrifuged in a Beckman Microfuge (4 minutes) immediately after adding 1 ml of ice-cold incubation buffer. The supernatant was aspirated and discarded, pellets were counted with a Beckman gamma 5000. […]
row,Compound,IC50
1,"CN1C(=O)[C@H](NC(=O)c2ccccc2Br)N=C(c2ccccc2F)c2ccccc21 [Example 171, 3(R)-(+)-3-(2-Bromobenzoylamino)-1,3-dihydro-5-(2-fluorophenyl)-1-methyl-2H-1,4-benzodiazepin-2-one]",9 µM
2,"CN1C(=O)[C@@H](NC(=O)c2ccccc2Br)N=C(c2ccccc2F)c2ccccc21 [Example 161, 3(S)-(-)-3-(2-Bromobenzoylamino)-1,3-dihydro-5-(2-fluorophenyl)-1-methyl-2H-1,4-benzodiazepin-2-one]",6.2 µM
